Experimental data: ChEMBL document CHEMBL4507276, “Data for DCP probe BI 665915” (2021)

Protein sequences, listed by entry. Tags and fused reporters are not part of them. Lines headed by an entry give the natural chain unless they say otherwise; changes in a name come on top.
UniProt Q86Y07: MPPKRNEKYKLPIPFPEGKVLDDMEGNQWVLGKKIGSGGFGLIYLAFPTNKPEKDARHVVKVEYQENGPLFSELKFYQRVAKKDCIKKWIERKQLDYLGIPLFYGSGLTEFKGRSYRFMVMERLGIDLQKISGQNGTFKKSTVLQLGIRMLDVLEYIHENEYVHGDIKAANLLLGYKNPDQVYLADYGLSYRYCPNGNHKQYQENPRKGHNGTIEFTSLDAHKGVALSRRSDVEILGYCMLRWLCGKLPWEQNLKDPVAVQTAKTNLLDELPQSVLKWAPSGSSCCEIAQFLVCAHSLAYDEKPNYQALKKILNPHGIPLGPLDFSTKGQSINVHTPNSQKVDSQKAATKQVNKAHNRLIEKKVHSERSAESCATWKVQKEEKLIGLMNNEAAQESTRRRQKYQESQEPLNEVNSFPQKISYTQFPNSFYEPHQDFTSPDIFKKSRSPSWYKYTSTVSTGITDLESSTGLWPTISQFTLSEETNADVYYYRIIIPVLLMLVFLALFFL
UniProt Q99558: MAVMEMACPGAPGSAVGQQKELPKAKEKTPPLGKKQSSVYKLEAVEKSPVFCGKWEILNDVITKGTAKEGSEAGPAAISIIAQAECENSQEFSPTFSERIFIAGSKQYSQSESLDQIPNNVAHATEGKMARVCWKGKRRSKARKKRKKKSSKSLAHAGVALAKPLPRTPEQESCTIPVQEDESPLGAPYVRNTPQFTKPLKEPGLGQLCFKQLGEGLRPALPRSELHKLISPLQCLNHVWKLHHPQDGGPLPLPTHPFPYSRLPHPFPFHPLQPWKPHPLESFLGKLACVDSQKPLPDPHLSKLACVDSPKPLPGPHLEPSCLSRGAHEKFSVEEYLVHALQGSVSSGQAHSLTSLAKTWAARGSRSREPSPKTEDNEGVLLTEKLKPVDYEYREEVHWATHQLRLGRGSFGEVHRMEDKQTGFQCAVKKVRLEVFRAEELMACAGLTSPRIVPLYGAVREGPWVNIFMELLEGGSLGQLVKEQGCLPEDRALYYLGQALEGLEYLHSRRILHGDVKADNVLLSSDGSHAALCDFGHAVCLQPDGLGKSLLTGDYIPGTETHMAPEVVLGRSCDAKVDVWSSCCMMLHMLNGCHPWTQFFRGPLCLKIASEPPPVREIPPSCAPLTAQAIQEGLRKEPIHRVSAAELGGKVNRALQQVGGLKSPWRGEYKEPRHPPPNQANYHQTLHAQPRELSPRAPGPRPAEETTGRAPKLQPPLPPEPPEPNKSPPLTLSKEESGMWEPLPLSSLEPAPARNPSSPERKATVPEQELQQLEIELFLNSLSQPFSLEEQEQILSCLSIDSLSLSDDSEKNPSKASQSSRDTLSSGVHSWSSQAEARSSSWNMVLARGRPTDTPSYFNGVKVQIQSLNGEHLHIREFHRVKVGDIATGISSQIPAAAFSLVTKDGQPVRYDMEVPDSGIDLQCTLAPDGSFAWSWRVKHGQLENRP
UniProt P07333, whole entry: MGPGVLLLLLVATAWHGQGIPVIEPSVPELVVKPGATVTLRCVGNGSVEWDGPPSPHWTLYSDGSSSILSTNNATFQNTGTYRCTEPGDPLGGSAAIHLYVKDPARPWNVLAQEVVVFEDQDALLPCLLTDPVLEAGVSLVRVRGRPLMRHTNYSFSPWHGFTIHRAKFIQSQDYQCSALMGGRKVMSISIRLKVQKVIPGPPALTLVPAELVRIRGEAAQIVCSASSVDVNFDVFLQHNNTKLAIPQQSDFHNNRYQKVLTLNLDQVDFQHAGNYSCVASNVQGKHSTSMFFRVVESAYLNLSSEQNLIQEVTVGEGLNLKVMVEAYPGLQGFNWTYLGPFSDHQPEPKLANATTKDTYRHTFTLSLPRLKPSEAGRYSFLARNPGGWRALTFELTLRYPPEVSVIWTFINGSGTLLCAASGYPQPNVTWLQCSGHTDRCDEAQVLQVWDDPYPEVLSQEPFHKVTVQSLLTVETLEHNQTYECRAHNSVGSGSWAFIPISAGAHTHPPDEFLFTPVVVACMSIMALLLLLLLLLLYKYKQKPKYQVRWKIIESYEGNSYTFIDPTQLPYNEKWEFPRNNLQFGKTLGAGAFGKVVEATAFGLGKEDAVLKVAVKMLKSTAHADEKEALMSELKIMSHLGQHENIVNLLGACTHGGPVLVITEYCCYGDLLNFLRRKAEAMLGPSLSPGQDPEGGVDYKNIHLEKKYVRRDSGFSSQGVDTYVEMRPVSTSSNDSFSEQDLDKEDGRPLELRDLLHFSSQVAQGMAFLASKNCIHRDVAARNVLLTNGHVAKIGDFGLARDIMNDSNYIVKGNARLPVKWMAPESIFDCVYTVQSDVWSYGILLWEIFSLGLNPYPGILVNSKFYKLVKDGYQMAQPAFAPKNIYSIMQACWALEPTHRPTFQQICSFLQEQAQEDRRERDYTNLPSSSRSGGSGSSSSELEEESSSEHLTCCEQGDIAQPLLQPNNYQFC
UniProt P07949, whole entry: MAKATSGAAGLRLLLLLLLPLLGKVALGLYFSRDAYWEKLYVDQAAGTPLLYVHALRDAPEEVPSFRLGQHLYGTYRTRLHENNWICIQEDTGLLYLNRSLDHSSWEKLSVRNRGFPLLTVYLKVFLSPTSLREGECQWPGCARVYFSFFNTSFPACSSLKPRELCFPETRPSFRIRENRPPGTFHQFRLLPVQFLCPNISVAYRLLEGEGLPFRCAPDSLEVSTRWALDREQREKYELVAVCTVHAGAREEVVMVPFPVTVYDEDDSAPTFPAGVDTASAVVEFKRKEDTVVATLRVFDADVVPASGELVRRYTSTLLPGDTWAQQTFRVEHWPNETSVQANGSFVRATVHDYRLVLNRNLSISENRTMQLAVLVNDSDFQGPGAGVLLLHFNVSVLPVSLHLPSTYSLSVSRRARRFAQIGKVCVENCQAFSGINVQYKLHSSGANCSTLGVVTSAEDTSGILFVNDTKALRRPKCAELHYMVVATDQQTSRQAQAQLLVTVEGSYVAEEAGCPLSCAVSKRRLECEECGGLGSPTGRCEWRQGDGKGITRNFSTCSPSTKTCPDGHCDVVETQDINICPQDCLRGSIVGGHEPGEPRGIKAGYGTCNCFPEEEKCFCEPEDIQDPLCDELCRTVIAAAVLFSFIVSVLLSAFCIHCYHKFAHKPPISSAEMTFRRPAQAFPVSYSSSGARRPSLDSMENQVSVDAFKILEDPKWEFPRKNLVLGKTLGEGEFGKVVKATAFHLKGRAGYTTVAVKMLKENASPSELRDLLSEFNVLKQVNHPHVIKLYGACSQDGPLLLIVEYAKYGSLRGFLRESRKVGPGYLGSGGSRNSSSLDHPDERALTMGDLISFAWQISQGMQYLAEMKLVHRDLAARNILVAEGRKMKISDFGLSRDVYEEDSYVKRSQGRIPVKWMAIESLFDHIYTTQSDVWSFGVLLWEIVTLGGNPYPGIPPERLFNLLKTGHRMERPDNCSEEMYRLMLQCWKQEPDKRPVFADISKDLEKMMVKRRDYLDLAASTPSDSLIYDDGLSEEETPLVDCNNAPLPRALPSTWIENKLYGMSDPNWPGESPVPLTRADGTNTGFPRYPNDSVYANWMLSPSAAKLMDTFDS
UniProt Q00532: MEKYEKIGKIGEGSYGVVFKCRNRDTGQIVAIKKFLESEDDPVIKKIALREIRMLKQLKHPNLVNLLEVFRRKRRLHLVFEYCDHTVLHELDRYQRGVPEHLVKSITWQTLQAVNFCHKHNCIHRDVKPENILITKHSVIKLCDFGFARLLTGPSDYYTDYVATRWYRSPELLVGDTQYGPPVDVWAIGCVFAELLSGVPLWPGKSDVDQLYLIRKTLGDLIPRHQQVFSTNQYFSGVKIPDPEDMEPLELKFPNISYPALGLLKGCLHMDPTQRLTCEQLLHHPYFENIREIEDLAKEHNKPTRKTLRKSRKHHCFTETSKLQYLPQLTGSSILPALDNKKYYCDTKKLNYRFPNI
UniProt O43283: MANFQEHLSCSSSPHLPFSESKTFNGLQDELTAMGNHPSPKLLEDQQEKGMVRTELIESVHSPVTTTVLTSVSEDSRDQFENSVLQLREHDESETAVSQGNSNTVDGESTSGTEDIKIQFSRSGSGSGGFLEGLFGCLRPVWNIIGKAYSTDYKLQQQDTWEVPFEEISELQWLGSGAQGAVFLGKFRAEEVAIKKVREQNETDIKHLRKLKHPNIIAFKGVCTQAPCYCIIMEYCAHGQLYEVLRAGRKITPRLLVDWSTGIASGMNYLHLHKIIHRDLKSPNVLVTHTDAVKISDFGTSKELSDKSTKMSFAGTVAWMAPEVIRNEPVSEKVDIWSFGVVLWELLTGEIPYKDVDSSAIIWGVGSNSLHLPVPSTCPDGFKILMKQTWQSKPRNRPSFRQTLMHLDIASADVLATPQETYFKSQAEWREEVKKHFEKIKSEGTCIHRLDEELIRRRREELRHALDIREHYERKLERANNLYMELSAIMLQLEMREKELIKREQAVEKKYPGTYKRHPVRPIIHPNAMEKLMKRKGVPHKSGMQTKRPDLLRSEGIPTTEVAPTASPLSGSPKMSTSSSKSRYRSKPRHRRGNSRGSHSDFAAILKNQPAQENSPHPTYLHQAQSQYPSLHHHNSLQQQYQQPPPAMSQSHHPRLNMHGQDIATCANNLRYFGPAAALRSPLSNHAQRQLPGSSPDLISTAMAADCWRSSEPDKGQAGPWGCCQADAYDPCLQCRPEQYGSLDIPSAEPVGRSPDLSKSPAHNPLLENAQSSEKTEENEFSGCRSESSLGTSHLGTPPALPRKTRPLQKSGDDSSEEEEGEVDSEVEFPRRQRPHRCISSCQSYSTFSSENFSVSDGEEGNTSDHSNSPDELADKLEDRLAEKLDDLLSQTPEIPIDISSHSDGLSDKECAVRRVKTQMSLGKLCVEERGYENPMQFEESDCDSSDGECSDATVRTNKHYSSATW
UniProt O60674: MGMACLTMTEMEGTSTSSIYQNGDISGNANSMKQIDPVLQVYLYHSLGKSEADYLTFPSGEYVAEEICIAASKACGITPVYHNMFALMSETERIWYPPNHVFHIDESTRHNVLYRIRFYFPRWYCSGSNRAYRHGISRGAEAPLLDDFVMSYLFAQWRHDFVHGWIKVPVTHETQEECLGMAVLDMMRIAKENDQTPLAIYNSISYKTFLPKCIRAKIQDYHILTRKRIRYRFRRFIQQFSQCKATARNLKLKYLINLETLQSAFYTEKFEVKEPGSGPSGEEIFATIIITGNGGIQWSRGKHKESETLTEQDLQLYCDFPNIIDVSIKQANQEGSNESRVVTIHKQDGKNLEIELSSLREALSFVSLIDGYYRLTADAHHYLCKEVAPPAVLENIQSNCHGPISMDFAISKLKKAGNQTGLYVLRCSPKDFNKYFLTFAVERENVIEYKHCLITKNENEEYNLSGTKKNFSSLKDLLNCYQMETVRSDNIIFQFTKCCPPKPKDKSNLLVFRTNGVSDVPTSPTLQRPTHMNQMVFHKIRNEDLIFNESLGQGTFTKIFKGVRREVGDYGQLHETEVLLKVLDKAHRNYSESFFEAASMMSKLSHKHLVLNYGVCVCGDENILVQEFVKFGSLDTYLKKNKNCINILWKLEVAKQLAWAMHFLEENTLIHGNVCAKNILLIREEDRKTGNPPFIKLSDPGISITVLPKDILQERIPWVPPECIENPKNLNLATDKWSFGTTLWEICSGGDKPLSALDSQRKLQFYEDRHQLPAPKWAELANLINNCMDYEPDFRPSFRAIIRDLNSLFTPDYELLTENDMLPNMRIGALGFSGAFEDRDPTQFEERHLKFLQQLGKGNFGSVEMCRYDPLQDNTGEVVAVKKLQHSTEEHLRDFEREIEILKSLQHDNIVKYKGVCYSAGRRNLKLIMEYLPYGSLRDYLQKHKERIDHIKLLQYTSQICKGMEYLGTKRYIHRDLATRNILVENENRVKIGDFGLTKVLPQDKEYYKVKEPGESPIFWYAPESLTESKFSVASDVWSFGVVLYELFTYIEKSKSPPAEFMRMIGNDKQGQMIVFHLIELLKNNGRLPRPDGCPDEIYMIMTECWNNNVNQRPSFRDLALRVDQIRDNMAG
UniProt Q96GD4, whole entry: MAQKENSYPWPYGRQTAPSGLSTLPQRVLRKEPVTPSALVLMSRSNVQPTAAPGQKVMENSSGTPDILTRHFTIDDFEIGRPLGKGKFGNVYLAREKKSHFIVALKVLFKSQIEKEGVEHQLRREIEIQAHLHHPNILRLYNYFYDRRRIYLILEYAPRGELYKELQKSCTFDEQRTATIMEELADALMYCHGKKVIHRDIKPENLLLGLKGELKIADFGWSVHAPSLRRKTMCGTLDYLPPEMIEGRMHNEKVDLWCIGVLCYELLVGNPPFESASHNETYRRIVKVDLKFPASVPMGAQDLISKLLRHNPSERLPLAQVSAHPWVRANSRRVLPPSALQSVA

Experiments:
[1] = molecular target: Serine/threonine-protein kinase VRK2 (Homo sapiens) (UniProt Q86Y07); details: Compound concentration 1000.0 nM
[2] = molecular target: Mitogen-activated protein kinase kinase kinase 14 (Homo sapiens) (UniProt Q99558); details: Compound concentration 1000.0 nM
[3] = molecular target: Dual specificity mitogen-activated protein kinase kinase 1 (Homo sapiens) (UniProt Q02750); assay: MAP2K1_S_D Invitrogen selectivity data (BI); details: Compound concentration 3.0 uM
[4] = molecular target: Atypical kinase COQ8B, mitochondrial (Homo sapiens) (UniProt Q96D53); details: Compound concentration 1000.0 nM
[5] = system: Imidazoline I2 binding site (Rattus norvegicus); assay: I2/CENTR/R Eurofins-Panlabs selectivity data (BI); details: Compound concentration 10.0 uM
[6] = molecular target: Protein kinase C epsilon type (Homo sapiens) (UniProt Q02156); details: Compound concentration 1000.0 nM
[7] = molecular target: Tyrosine-protein kinase ABL1 (Homo sapiens) (UniProt P00519); details: Compound concentration 1000.0 nM
[8] = molecular target: Macrophage colony-stimulating factor 1 receptor (Homo sapiens) (UniProt P07333); details: Compound concentration 1000.0 nM
[9] = molecular target: Phosphatidylinositol 4-kinase beta (Homo sapiens) (UniProt Q9UBF8); details: Compound concentration 1000.0 nM
[10] = molecular target: Death-associated protein kinase 3 (Homo sapiens) (UniProt O43293); details: Compound concentration 1000.0 nM
[11] = molecular target: Proto-oncogene tyrosine-protein kinase receptor Ret (Homo sapiens) (UniProt P07949); assay: RET Invitrogen selectivity data (BI); details: Compound concentration 3.0 uM
[12] = molecular target: Tyrosine-protein kinase ZAP-70 (Homo sapiens) (UniProt P43403); assay: ZAP70_CE Cerep selectivity data (BI); details: Compound concentration 20.0 uM
[13] = molecular target: 3-phosphoinositide-dependent protein kinase 1 (Homo sapiens) (UniProt O15530); assay: PDK1 Invitrogen selectivity data (BI); details: Compound concentration 3.0 uM
[14] = molecular target: Prostaglandin E2 receptor EP4 subtype (Homo sapiens) (UniProt P35408); assay: PEP4_HU Eurofins-Panlabs selectivity data (BI); details: Compound concentration 10.0 uM
[15] = molecular target: Vascular endothelial growth factor receptor 1 (Homo sapiens) (UniProt P17948); assay: FLT1 Invitrogen selectivity data (BI); details: Compound concentration 3.0 uM
[16] = molecular target: Ephrin type-A receptor 5 (Homo sapiens) (UniProt P54756); assay: EPHA5 Invitrogen selectivity data (BI); details: Compound concentration 3.0 uM
[17] = molecular target: Cyclin-dependent kinase-like 1 (Homo sapiens) (UniProt Q00532); details: Compound concentration 1000.0 nM
[18] = molecular target: Protein kinase C theta type (Homo sapiens) (UniProt Q04759); details: Compound concentration 1000.0 nM
[19] = molecular target: Serine/threonine-protein kinase TNNI3K (Homo sapiens) (UniProt Q59H18); details: Compound concentration 1000.0 nM
[20] = molecular target: MAP kinase-activated protein kinase 2 (Homo sapiens) (UniProt P49137); details: Compound concentration 1000.0 nM
[21] = molecular target: NT-3 growth factor receptor (Homo sapiens) (UniProt Q16288); details: Compound concentration 1000.0 nM
[22] = molecular target: Ephrin type-A receptor 3 (Homo sapiens) (UniProt P29320); assay: EPHA3 Invitrogen selectivity data (BI); details: Compound concentration 3.0 uM
[23] = molecular target: Serine/threonine-protein kinase D1 (Homo sapiens) (UniProt Q15139); assay: PRKD1 Invitrogen selectivity data (BI); details: Compound concentration 3.0 uM
[24] = molecular target: Mitogen-activated protein kinase kinase kinase 13 (Homo sapiens) (UniProt O43283); details: Compound concentration 1000.0 nM
[25] = molecular target: Serine/threonine-protein kinase MARK1 (Homo sapiens) (UniProt Q9P0L2); details: Compound concentration 1000.0 nM
[26] = molecular target: Ribosomal protein S6 kinase alpha-5 (Homo sapiens) (UniProt O75582); details: Compound concentration 1000.0 nM
[27] = molecular target: Tyrosine-protein kinase JAK2 (Homo sapiens) (UniProt O60674); assay: JAK2 JH1 JH2 Invitrogen selectivity data (BI); details: Compound concentration 3.0 uM
[28] = molecular target: Aurora kinase B (Homo sapiens) (UniProt Q96GD4); assay: AURKB Invitrogen selectivity data (BI); details: Compound concentration 3.0 uM
[29] = molecular target: Serine/threonine-protein kinase TBK1 (Homo sapiens) (UniProt Q9UHD2); assay: TBK1 Invitrogen selectivity data (BI); details: Compound concentration 3.0 uM

In the case of CN(C)C(=O)Cn1cc(-c2nc([C@@](C)(c3ccc(-c4cnc(N)nc4)cc3)C3CC3)no2)cn1 [BI 665915], the residual activity [1] is reported as 92%, the residual activity [2] is reported as 92% and the residual activity [3] is reported as 92%. For the same compound, the residual activity [4] was 92%, the residual activity [5] was 92% and the residual activity [6] was 44%. For the same compound, the residual activity [7] was 92%, the residual activity [8] was 92% and the residual activity [9] was 92%. The residual activity [10] was 92%, the residual activity [11] was 56% and the residual activity [12] was 92%. For the same compound, the residual activity [13] was 92%, the residual activity [14] was 92% and the residual activity [15] was 92%. The residual activity [16] was 92%, the residual activity [17] was 92% and the residual activity [18] was 92%. It also gave a residual activity [19] of 92%, a residual activity [20] of 92% and a residual activity [21] of 92%. The residual activity [22] was 92%, the residual activity [23] was 92% and the residual activity [24] was 92%. For the same compound, the residual activity [25] was 92%, the residual activity [26] was 92% and the residual activity [27] was 92%. The residual activity [28] was 92% and the residual activity [29] was 92%.
